GIV-Gai inh: blocks GIV peptide binding to rat Galpha-i3. P08753. Galpha-i3/FITC-GIV peptide fluorescence polarization, 90 min; hits give low values; scaled: aluminum fluoride 0%, vehicle 100%. percent of control (FP), % (concentration not given with the values). actives 0.42% (n = 210,000). AID 1224905;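 active = replicate mean at 85% of control or lower, very high polarization wells dropped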;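 also: wells of about 15 µL received 100 nL stock; the first replicate is given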
HCMV UL50-53 inh: inhibitors of HCMV UL50-UL53 nuclear egress complex interaction | inhibition, % (no concentration beside the values) | 190,000 compounds, 0.15% hits | HTRF UL50-UL53 interaction, normalized percent inhibition; in the data active means inhibition above about 27%, passing the limit was not always enough
Active calls of the source: *. Only some compounds are listed: those with a hit (about 0.46% of all), similar ones and a draw of the others.

What do the screens show for `N#CC(C#N)C(C#N)(C#N)C1CCCC1=O` (stereo not drawn)?
GIV-Gai inh: 68*; HCMV UL50-53 inh: -4

How did Cc1cc(=O)n(Cc2ccncc2)c2c1c(C)nn2C do in these assays?
GIV-Gai inh: 113; HCMV UL50-53 inh: 7

What do the screens show for `Cc1ccc(C)c(S(=O)(=O)N(Cc2ccco2)CC2CCCO2)c1` (stereo not drawn)?
GIV-Gai inh: 103

Results for Cc1ccc(/C=C2\CC/C(=C\c3ccc(C)o3)C2=O)o1 ?
GIV-Gai inh: -75*

What do the screens show for `Cc1ccc(/C=C2/CC(C)C/C(=C\c3ccc(C)o3)C2=O)o1` (stereo not drawn)?
GIV-Gai inh: 206; HCMV UL50-53 inh: -2

What do the screens show for `Cc1ccc(SC(C)C(=O)NCC2CCCO2)cc1` (stereo not drawn)?
HCMV UL50-53 inh: -4

Results for COc1ccc(C(=O)Nc2sc3c(c2-c2nc4ccccc4s2)CCN(C(C)C)C3)cc1OC ?
GIV-Gai inh: -3.2*

How did CC(=O)Nc1sc2c(c1-c1nc3ccccc3s1)CCN(C(C)C)C2 do in these assays?
GIV-Gai inh: -3.2*

How did COC(=O)c1ccc(C(=O)Nc2sc3c(c2-c2nc4ccccc4s2)CCN(C(C)C)C3)cc1 do in these assays?
GIV-Gai inh: 262

Results for CN1CCc2c(sc(NC(=O)c3nc4ccccc4s3)c2-c2nc3ccccc3s2)C1 ?
GIV-Gai inh: 96

Results for CC(C)N1CCc2c(sc(NC(=O)C(C)(C)C)c2-c2nc3ccccc3s2)C1 ?
GIV-Gai inh: -26*

Results for CCN1CCc2c(sc(NC(=O)CSc3ccccc3)c2-c2nc3ccccc3s2)C1 ?
GIV-Gai inh: 169

Results for CCN1CCc2c(sc(NC(=O)c3ccc(Cl)cc3)c2-c2nc3ccccc3s2)C1 ?
GIV-Gai inh: -3.2*

How did CC(=O)N1CCc2c(sc(NC(=O)C(C)C)c2-c2nc3ccccc3s2)C1 do in these assays?
HCMV UL50-53 inh: -17

What do the screens show for `Cc1cc2c(cc1S(=O)(=O)N(C)CC(=O)Nc1nccs1)OC(C)C(=O)N2` (stereo not drawn)?
GIV-Gai inh: 105

Brought forward from above: 4 compounds, then new ones.
Results for CCN1CCc2c(sc(NC(=O)CSc3ccccc3)c2-c2nc3ccccc3s2)C1 ?
GIV-Gai inh: 169

Results for CCN1CCc2c(sc(NC(=O)c3ccc(Cl)cc3)c2-c2nc3ccccc3s2)C1 ?
GIV-Gai inh: -3.2*

How did CC(=O)N1CCc2c(sc(NC(=O)C(C)C)c2-c2nc3ccccc3s2)C1 do in these assays?
HCMV UL50-53 inh: -17

What do the screens show for `Cc1cc2c(cc1S(=O)(=O)N(C)CC(=O)Nc1nccs1)OC(C)C(=O)N2` (stereo not drawn)?
GIV-Gai inh: 105

What do the screens show for `Cc1nc(C(C#N)c2ccccc2)cs1` (stereo not drawn)?
HCMV UL50-53 inh: -23

Results for Cc1ccc(-c2noc(-c3ccc(Nc4ccc5c(c4)OCO5)nn3)n2)cc1 ?
GIV-Gai inh: 105; HCMV UL50-53 inh: 1

How did CCOC(=O)N1CCC(NC(=O)C2CCCN(c3ncnc4c3sc3cccc(F)c34)C2)CC1 (stereo not drawn) do in these assays?
GIV-Gai inh: 103

How did CCOC(=O)N1CCC(NC(=O)C2CCN(c3ncnc4c3sc3cccc(F)c34)CC2)CC1 do in these assays?
GIV-Gai inh: 101; HCMV UL50-53 inh: 53*

Results for COc1ccc(/C=C2\N=C(c3ccc(Cl)cc3)N(c3cc(Cl)ccc3C)C2=O)cc1OC ?
GIV-Gai inh: 131

What do the screens show for `COc1ccccc1/C=C1\N=C(c2ccc(OC)c(OC)c2)N(c2ccc(Cl)c(Cl)c2)C1=O`?
GIV-Gai inh: 100

What do the screens show for `COc1ccccc1/C=C1\N=C(c2ccc(OC)c(OC)c2)N(c2ccc(Cl)cc2)C1=O`?
GIV-Gai inh: 77*

Results for COc1cccc(C2=N/C(=C/c3ccccc3OC)C(=O)N2c2ccc(OC)c(OC)c2)c1 ?
GIV-Gai inh: 114

What do the screens show for `COc1cccc(C2=N/C(=C\c3ccccc3OC)C(=O)N2c2ccc(C)c(F)c2)c1`?
GIV-Gai inh: 61*

How did COc1ccc(/C=C2\N=C(c3ccc(Cl)cc3)N(c3ccccc3Br)C2=O)cc1OC do in these assays?
GIV-Gai inh: 67*

Results for Cc1ccc(C(=O)Nc2ccc3c(c2)NC(=O)CO3)cc1 ?
GIV-Gai inh: 107; HCMV UL50-53 inh: -27

What do the screens show for `O=C(CCC1CCCCC1)Nc1nc2ccccc2s1`?
GIV-Gai inh: 95

What do the screens show for `O=C1CN=C(Nc2ccccc2Cl)N1Cc1ccccc1`?
GIV-Gai inh: 102; HCMV UL50-53 inh: 15

How did Cc1cccc(NC2=NCC(=O)N2Cc2ccccc2)c1 do in these assays?
GIV-Gai inh: 102; HCMV UL50-53 inh: 59*

How did COC(=O)/C=C/c1ccc2c(c1)OCO2 do in these assays?
HCMV UL50-53 inh: -17

Results for O=C(O)/C=C/c1ccco1 ?
GIV-Gai inh: 101; HCMV UL50-53 inh: -1

Results for CN(C)c1ccc(/C=C/C(=O)/C=C/c2ccco2)cc1 ?
GIV-Gai inh: 6.8*; HCMV UL50-53 inh: 13

What do the screens show for `CN(C)c1ccc(/C=C/C(=O)/C=C/c2ccc3c(c2)OCO3)cc1`?
GIV-Gai inh: -64*

What do the screens show for `COc1ccccc1CNC(=O)c1ccccc1SC`?
GIV-Gai inh: 113; HCMV UL50-53 inh: 2

How did COc1ccc(OC(=O)c2cn(-c3ccccc3)nc2SC)cc1 do in these assays?
GIV-Gai inh: 97; HCMV UL50-53 inh: 4

What do the screens show for `CCC(=O)NCCc1csc2nc(-c3ccc(Cl)cc3)nn12`?
GIV-Gai inh: 103; HCMV UL50-53 inh: -14

High-throughput results from PubChem.
